Measured values reported in US20030073705A1, “Method of treatment” (priority 2001, published 2003).

System: patients with Type 2 diabetes and nephropathy
Test: Discontinuation from study therapy and adverse experiences
Conditions: n = 751
Method: The study involved male and female patients ranging in age from 31 to 70 years diagnosed with Type 2 diabetes and nephropathy; the latter defined as two urine albumin:creatinine ratios from a first morning specimen >300 mg/g (34 mg/mmol) (or a 24-hr urine protein >=500 mg (0.5 g/day)) and two serum creatinine values between 1.3 and 3.0 mg/dL (115 and 265 μmol/L) (lower limit of 1.5 mg/dL (133 μmol/L)for males >60 kg). […] Journal of the Renin Angiotensin Aldosterone System 2000;1(4):328-35. Patients were excluded from the study if diagnosed with Type 1 diabetes or nondiabetic renal disease, including renal artery stenosis. Patients with a history of heart failure, myocardial infarction or coronary artery bypass grafting within 1 month, cerebral vascular accident or percutaneous transluminal coronary angioplasty within 6 months or transient ischemic attacks within 1 year prior to enrollment were excluded.
During the 6-week screening phase, hypertensive patients continued to take their standard antihypertensive therapy. However, in those patients taking angiotensin I converting enzyme inhibitors or angiotensin II receptor antagonists, these agents were discontinued at the beginning of the screening phase and replaced by alternative open-label therapy at the investigator's discretion (diuretic, calcium-channel antagonist, α- or β-blocker, and/or centrally acting agent). […]

Substance: 2-N-butyl-4-chloro-5-hydroxymethyl-1-[(2′-(1H-tetrazol-5-yl)biphenyl-4-yl)-methyl]imidazole, potassium salt [Losartan]
- Laboratory adverse experience causing discontinuation: Serum Creatinine Increased: 12 (1.6) n (%)
